This passage reports K0.5 results from publication PMC9493007.

This series has as its system Nc1ncnc2c1ncn2[C@@H]1O[C@H](COP(=O)(O)OP(=O)(O)OP(=O)(O)O)[C@@H](O)[C@H]1O. Briefly: purified protein. The conditions noted are these: 20 mM Tris pH 8.0, 100 mM NaCl, 10 mM MgCl2, 1 mM DTT, 0.025% BSA, 5% glycerol, 5 µM protein, Hill fit, cooperative.

Substance “YsaN (Yersinia enterocolitica subsp. enterocolitica 8081)” had a K0.5 of 758.7 ± 84.35 µM.
